Source: patent US11124550B2, “Proteinaceous molecules and methods of use” (priority 2015, dated 2021)

Amino acid sequences for entries named in this document (tags omitted).
UniProt Q14524, whole entry: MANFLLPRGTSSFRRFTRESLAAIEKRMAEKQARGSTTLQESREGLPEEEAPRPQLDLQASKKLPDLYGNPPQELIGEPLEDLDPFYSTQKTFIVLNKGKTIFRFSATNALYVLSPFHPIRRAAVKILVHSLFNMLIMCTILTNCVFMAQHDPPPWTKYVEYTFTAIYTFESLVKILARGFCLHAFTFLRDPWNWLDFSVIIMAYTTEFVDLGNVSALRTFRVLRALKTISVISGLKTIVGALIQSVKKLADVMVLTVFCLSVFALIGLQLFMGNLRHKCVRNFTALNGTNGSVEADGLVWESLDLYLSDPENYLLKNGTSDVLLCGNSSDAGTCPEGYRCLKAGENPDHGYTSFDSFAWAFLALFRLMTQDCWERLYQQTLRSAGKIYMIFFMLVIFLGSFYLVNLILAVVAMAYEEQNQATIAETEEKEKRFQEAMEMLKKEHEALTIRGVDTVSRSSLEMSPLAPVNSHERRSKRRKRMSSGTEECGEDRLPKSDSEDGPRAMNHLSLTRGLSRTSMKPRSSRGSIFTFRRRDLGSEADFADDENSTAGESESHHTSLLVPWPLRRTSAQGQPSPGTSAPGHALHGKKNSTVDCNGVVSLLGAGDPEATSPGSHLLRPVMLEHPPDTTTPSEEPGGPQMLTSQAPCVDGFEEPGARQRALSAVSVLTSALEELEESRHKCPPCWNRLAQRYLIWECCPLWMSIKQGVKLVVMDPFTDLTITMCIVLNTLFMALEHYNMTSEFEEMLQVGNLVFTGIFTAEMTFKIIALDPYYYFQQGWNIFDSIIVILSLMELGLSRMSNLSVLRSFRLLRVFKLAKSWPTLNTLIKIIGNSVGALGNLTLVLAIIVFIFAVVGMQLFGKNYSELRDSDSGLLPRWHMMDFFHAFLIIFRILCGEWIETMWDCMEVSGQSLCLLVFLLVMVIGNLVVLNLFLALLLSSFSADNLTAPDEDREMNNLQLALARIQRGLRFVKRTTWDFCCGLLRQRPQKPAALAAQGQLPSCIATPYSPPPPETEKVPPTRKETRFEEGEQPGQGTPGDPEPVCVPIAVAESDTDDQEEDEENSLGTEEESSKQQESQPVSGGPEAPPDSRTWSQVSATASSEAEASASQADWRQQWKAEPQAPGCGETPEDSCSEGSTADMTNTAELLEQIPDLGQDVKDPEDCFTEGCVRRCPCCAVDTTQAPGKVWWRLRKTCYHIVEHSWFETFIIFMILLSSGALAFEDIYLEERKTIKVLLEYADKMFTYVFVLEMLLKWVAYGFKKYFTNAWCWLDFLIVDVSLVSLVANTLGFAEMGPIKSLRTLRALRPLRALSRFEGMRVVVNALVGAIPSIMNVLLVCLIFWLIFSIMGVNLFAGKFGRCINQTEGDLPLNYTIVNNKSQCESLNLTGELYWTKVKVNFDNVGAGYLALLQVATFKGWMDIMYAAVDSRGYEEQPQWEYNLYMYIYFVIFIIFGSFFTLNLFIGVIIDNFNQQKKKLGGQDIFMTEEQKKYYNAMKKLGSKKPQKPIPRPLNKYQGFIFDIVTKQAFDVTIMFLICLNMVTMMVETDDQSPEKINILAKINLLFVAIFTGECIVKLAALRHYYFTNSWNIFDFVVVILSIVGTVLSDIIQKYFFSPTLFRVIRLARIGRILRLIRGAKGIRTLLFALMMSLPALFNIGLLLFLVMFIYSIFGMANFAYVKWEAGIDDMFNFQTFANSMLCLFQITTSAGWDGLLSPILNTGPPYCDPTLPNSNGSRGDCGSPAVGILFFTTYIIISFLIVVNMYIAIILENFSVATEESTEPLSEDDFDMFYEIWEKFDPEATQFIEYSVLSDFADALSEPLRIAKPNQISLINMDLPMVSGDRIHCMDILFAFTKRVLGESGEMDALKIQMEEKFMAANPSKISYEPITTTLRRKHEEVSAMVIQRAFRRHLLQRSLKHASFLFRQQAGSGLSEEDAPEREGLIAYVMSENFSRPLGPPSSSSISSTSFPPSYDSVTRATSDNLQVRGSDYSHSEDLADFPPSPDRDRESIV
UniProt Q99250, whole entry: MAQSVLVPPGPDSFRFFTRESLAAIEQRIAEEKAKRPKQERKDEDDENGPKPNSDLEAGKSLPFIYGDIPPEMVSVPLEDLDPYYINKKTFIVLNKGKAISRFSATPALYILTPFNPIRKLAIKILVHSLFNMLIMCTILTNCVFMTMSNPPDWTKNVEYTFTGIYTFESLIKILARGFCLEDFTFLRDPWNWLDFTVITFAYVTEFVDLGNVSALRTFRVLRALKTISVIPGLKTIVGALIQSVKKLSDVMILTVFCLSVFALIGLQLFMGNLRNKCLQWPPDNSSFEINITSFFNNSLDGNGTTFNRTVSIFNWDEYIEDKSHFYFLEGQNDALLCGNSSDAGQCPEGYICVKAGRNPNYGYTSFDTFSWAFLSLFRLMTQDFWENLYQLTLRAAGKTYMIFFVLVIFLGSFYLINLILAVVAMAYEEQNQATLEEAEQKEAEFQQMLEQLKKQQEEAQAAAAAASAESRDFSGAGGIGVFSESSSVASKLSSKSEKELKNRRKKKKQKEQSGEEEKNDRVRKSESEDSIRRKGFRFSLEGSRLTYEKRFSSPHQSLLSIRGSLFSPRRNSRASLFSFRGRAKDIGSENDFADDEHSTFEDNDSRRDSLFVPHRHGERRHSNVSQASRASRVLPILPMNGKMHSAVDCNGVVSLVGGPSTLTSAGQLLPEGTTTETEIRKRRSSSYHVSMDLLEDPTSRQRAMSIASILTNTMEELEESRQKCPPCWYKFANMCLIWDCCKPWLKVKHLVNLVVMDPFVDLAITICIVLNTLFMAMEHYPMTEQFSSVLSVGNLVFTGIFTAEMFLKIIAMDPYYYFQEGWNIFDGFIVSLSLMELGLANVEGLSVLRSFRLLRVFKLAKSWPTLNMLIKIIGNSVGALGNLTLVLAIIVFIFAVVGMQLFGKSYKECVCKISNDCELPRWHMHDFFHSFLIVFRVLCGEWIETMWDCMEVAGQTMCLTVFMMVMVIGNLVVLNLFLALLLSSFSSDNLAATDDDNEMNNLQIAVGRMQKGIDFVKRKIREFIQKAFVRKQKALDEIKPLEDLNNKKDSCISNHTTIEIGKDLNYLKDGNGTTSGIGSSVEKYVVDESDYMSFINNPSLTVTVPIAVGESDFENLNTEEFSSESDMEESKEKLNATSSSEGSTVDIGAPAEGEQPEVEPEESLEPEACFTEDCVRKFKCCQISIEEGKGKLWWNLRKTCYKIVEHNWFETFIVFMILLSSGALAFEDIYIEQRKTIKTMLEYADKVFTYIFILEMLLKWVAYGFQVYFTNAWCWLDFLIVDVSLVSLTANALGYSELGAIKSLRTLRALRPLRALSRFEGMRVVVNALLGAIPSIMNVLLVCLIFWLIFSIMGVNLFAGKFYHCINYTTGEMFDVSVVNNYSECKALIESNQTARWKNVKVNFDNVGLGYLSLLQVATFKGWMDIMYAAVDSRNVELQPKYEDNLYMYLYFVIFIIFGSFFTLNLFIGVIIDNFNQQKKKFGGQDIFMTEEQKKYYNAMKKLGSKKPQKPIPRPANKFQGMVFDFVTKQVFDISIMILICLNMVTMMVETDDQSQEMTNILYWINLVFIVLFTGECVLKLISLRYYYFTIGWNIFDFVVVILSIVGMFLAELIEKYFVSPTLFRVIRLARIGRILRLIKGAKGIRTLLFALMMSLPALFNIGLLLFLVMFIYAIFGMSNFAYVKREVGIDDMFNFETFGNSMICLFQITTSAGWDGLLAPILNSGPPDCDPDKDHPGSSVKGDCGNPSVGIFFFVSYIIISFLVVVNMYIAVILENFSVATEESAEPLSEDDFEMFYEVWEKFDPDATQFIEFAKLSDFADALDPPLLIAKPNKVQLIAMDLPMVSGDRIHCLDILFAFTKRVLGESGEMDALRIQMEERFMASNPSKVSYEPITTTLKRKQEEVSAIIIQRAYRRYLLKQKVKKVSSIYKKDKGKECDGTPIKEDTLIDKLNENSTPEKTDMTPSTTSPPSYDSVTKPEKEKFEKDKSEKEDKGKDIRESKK

How the values were obtained:
[1] = biological target: T1, hNav1.5 (Homo sapiens, UniProt Q14524); assay: Automated planar whole-cell patch clamp (Patchliner), hSCN5A HEK293T cells; type: cell-based; conditions: concentrations tested up to 50 nM
T1 construct: expressed in transfected cells; host or cells: HEK293T
From the text: (§1) To characterize the functional activity of Hm1a and Hm1b, HEK293T cells stably transfected with either hSCN1A, hSCN2A, hSCN3A, hSCN5A, hSCN9A or hSCN10A as well as CHO cells stably transfected with hSCN4A or hSCN8A were used for whole-cell patch-clamp analysis with a high throughput automated planar patch-clamp technology.
(§2) HEK293T cells stably transfected with either hSCN1A, hSCN2A, hSCN3A, hSCN5A, hSCN9A or hSCN10A were maintained in Dulbecco's Modified Eagle's Medium Nutrient Mixture F-12 (Invitrogen, Carlsbad, Calif., USA) supplemented with 10% (v/v) foetal bovine serum (FBS) (Invitrogen), 0.9% Penicillin/Streptomycin (P/S) solution and 100 μg/mL hygromycin or 100 μg/mL neomycin. CHO cells stably transfected with hSCN4A or hSCN8A were maintained in Ham's F12 Nutrient Mixture (Invitrogen, Carlsbad, Calif., USA) supplemented with 10% (v/v) FBS, 0.9% P/S solution and 100 μg/mL hygromycin. All cells were grown in T75 flasks (BD Biosciences, San Jose, Calif., USA) to ˜70% confluency.
(§3) Patch-clamp recordings were conducted in the whole-cell configuration using a Patchliner® (Nanion Technologies, Munich, Germany). […]

[2] = biological target: T2, hNav1.2 (Homo sapiens, UniProt Q99250); assay: Automated planar whole-cell patch clamp (Patchliner), hSCN2A HEK293T cells; type: cell-based; conditions: concentrations tested up to 50 nM
T2 construct: expressed in transfected cells; host or cells: HEK293T
From the text: as §1, §2, §3

SMILES: CC(C)C[C@@H]1NC(=O)[C@H](Cc2ccc(O)cc2)NC(=O)[C@H](CCCNC(=N)N)NC(=O)[C@@H](NC(=O)[C@@H](N)CCC(=O)O)CSSC[C@@H]2NC(=O)[C@@H]3CSSC[C@@H](C(=O)N[C@@H](C)C(=O)N[C@@H](Cc4c[nH]c5ccccc45)C(=O)N[C@@H](CC(=O)O)C(=O)NCC(=O)N[C@H](C(=O)N[C@@H](Cc4ccccc4)C(=O)N[C@@H](CO)C(=O)O)[C@@H](C)O)NC(=O)[C@H](Cc4ccc(O)cc4)NC(=O)[C@H](CCCCN)NC(=O)[C@H](Cc4c[nH]c5ccccc45)NC(=O)[C@H](CC(=O)O)NC(=O)[C@H](CO)NC(=O)[C@H](CCCNC(=N)N)NC(=O)[C@H](CSSC[C@H](NC(=O)CNC(=O)CNC(=O)[C@H](Cc4ccccc4)NC1=O)C(=O)N[C@@H](CO)C(=O)N[C@@H](CO)C(=O)N[C@@H]([C@@H](C)O)C(=O)N[C@@H](CO)C(=O)N[C@@H](CC(=O)O)C(=O)N3)NC(=O)[C@H](CO)NC(=O)[C@H](CC(C)C)NC(=O)[C@H](Cc1c[nH]cn1)NC(=O)[C@H](CCCCN)NC2=O [Hm1a]
- effect on hNav1.5 current [1]: no effect
- effect on hNav1.2 current [2]: no effect
